uPA surface inh – blocks generation of uPA at the cell surface; Potency, µM (highest dose often 38.3 µM), without a hit: at the top dose activity change, negative = inhibition, hits mostly inhibitors; 0.31% of 330,000 active; cell surface uPA generation assay, qHTS; active = well fitted inhibition curve with a large enough effect; inconclusive = small, poorly fitted or top-dose-only effect; inactive = no such curve, though single readings can be large or run the other way; tested in mouse RAW 264.7 cells; also: potency is read from the fitted curve at half-maximal effect; % is scaled to controls: 0 for no effect and ±100 for the full control effect; nearly all actives have a fitted effect of over 55% in size
TDP1 cell noCPT – qHTS for Inhibitors of human tyrosyl-DNA phosphodiesterase 1 (TDP1): qHTS in cells in absence of CPT. DT40 Tdp1-/- hTDP1 cells, no CPT, ATP luminescence, 48 h. 15% of 420,000 active. AID 686978, 2013. Potency, µM (series often up to 46.2 µM), inactives show at the top dose activity change, negative = growth inhibition, most hits filed as inhibitors; also: potency is read from the fitted curve at half-maximal effect; % is scaled to controls: 0 for no effect and ±100 for the full control effect; nearly all actives have a fitted effect of over 55% in size
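Seeded 400 DT40-hTDP1 cells/well (vehicle DMSO, no 20 nM CPT); pinned compounds; ≥48 hr at 37 °C; CellTiter-Glo luminescence as viability measure.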
DT40 TDP1 CPT – growth inhibition of DT40 Tdp1-/-;hTDP1 cells with camptothecin (screen for TDP1 inhibitors) | chicken DT40 Tdp1-/-;hTDP1 cells + 20 nM CPT, ATP luminescence, 48 h | Potency, µM (doses to about 46.2 µM), inactives show top-dose activity change, negative = growth inhibition, usual class: inhibitors | AID 686979 | 12% of 420,000 active; also: potency is read from the fitted curve at half-maximal effect; % is scaled to controls: 0 for no effect and ±100 for the full control effect; nearly all actives have a fitted effect of over 55% in size
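Chicken DT40 Tdp1-/- cells stably complemented with human TDP1 were seeded at 400 cells/well in medium containing 20 nM camptothecin, exposed to pin-transferred compounds, and grown at 37 °C for at least 48 hr. Viability was read as ATP luminescence.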
miR-21 reporter – miR-21 reporter, rising signal | HeLa miR-21 FLuc reporter, luciferase, 48 h | Potency, µM (doses to about 38.3 µM), inactives show at the top dose reporter change, positive = more light | 340,000 tested, under 10 active | AID 2288; active = well fitted rising curve with a large enough effect; inconclusive = small, poorly fitted or top-dose-only effect; inactive = no such curve, though single readings can be large or run the other way;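 note: % of control where 0% means no effect; miR-21 action dims this reporter so a rising signal means less miR-21 action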
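HeLa cells stably expressing CMV-driven firefly luciferase with a downstream miR-21 binding sequence, endogenously expressing miR-21, were treated with titrations (up to about 40uM final) for 48 hours at 37 degree Celsius. Luciferase luminescence was read after lysis.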
TDP1 block – inhibitors of human tyrosyl-DNA phosphodiesterase TDP1. Q9NUW8. recombinant TDP1, AlphaScreen DNA substrate cleavage. Potency, µM (series often up to 130 µM), inactives show at the top dose activity change, negative = inhibition, actives largely listed as inhibitors. 0.28% of 350,000 active. AID 485290; also: potency is read from the fitted curve at half-maximal effect; % is scaled to controls: 0 for no effect and ±100 for the full control effect; nearly all actives have a fitted effect of over 40% in size
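Signal: AlphaScreen proximity between streptavidin donor and anti-FITC acceptor beads on intact substrate. Reaction: Tdp1 1 nM, substrate 15 nM final, 5 min RT after 15 min compound preincubation.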
Numbers without * were called inactive. In the library only some 16% were active in any assay of this set; here they are far more common. Unless noted, calls follow the shape of the dose curve; as a rule, active = well fitted curve in the direction sought with a large enough effect; inconclusive = small, poorly fitted or top-dose-only effect, or another doubt; inactive = no such curve, though single readings can be large; an effect the other way counts as inactive or inconclusive.

`COc1cc2c(c(OC)c1OC)-c1ccc(OC)c(=O)cc1C(NC(=O)c1ccccc1)CC2` (stereo not given) gave uPA surface inh -14%, TDP1 cell noCPT 0.018µM* and DT40 TDP1 CPT 0.0092µM*.
CNC1CCc2cc(OC)c(OC)c(OC)c2-c2ccc(OC)c(=O)cc21 (stereo not given) was read as TDP1 block 2%.
`COc1cc2c(c(OC)c1OC)-c1ccc(SC)c(=O)cc1C(NC=O)CC2` (stereo not given) gave uPA surface inh -11%, TDP1 cell noCPT 0.16µM* and DT40 TDP1 CPT 0.13µM*.
COc1cc2c(cc1NC(=O)c1cccc(F)c1)CCCC2 was read as uPA surface inh 0%, TDP1 cell noCPT inconclusive, DT40 TDP1 CPT inconclusive, miR-21 reporter -40% and TDP1 block -4%.
For COc1cccc(C(=O)Nc2ccc3c(cc2=O)[C@@H](NC(C)=O)CCc2cc(OC)c(OC)c(OC)c2-3)c1 the results were uPA surface inh 10µM*, TDP1 cell noCPT 2.9µM*, DT40 TDP1 CPT 6.5µM* and miR-21 reporter 25%.
For CCCC[C@H](CN[C@@H](CNC)[C@H](C)CC)NCCC12CCC(CC1)C2 the results were uPA surface inh inconclusive, TDP1 cell noCPT 3.7µM*, DT40 TDP1 CPT 2.6µM* and miR-21 reporter 25%.
O=C(NC1CCCc2ccccc21)c1ccc([N+](=O)[O-])cc1 (stereo not given) was read as uPA surface inh -2%, TDP1 cell noCPT -20%, DT40 TDP1 CPT -29%, miR-21 reporter -7% and TDP1 block 0%.
CCCS(=O)(=O)NC(=O)C1(C)CCCN(C(=O)c2ccc(C(F)(F)F)cc2)C1 (stereo not given) was read as TDP1 cell noCPT 1% and DT40 TDP1 CPT -4%.
For O=C1COc2ccc(N3C(=O)c4ccccc4C3=O)cc2N1 the results were miR-21 reporter 0% and TDP1 block -1%.
For COc1ccccc1CNc1nc(Nc2ccc(C)cc2C)c2sccc2n1 the results were TDP1 cell noCPT 7.3µM* and DT40 TDP1 CPT 15µM*.
For COc1ccccc1CNc1nc(Nc2ccccc2OC)c2sccc2n1 the results were TDP1 cell noCPT 4.6µM* and DT40 TDP1 CPT 5.8µM*.
Screening COc1ccccc1CNS(=O)(=O)c1cc(C)ccc1OC returned uPA surface inh -5%, TDP1 cell noCPT -2%, DT40 TDP1 CPT -5%, miR-21 reporter -1% and TDP1 block 4%.

Next section, overlapping the part above by 2 compounds.
For COc1ccccc1CNc1nc(Nc2ccccc2OC)c2sccc2n1 the results were TDP1 cell noCPT 4.6µM* and DT40 TDP1 CPT 5.8µM*.
Screening COc1ccccc1CNS(=O)(=O)c1cc(C)ccc1OC returned uPA surface inh -5%, TDP1 cell noCPT -2%, DT40 TDP1 CPT -5%, miR-21 reporter -1% and TDP1 block 4%.
Screening O=C(CCCNS(=O)(=O)c1ccc(F)cc1)Nc1ccc(F)cc1 returned uPA surface inh 1%, TDP1 cell noCPT -19%, DT40 TDP1 CPT -12% and miR-21 reporter 0%.
For CCOC(=O)c1ccc(NC(=O)C2CC(=O)N=C(N)S2)cc1 (stereo not given) the results were uPA surface inh -5%, TDP1 cell noCPT 3%, DT40 TDP1 CPT 7%, miR-21 reporter -1% and TDP1 block 4%.
`Cc1ccccc1C(=O)Nc1nnc(-c2ccco2)o1` gave uPA surface inh -4%, TDP1 cell noCPT 18µM*, DT40 TDP1 CPT 21µM*, miR-21 reporter -49% and TDP1 block 11%.
For O=C(CSc1ccc(Cl)cc1)Nc1nnc(-c2ccco2)o1 the results were uPA surface inh -3%, TDP1 cell noCPT inconclusive and DT40 TDP1 CPT inconclusive.
COc1ccc(-c2nnc(NC(=O)c3ccccc3C)o2)cc1 was read as uPA surface inh -19%, TDP1 cell noCPT 15µM*, DT40 TDP1 CPT 16µM* and miR-21 reporter 16%.
`O=C(CSc1ccccc1)Nc1nnc(-c2ccco2)o1` gave uPA surface inh -2%, TDP1 cell noCPT inconclusive and DT40 TDP1 CPT 3%.
For O=C(COc1ccc(Cl)cc1)Nc1nnc(-c2ccc3c(c2)CCCC3)o1 the results were uPA surface inh -3%, TDP1 cell noCPT 5.8µM*, DT40 TDP1 CPT -4%, miR-21 reporter -17% and TDP1 block 0%.
